Laboratory results: article PMC6270727, “Anticholinesterase Inhibitory Activity of Quaternary Alkaloids from Tinospora crispa” (Molecules, 2014)

By UniProt entry, the sequences of proteins in these tests, tags left out. Residues count along the entry.
UniProt O42275, 24-633: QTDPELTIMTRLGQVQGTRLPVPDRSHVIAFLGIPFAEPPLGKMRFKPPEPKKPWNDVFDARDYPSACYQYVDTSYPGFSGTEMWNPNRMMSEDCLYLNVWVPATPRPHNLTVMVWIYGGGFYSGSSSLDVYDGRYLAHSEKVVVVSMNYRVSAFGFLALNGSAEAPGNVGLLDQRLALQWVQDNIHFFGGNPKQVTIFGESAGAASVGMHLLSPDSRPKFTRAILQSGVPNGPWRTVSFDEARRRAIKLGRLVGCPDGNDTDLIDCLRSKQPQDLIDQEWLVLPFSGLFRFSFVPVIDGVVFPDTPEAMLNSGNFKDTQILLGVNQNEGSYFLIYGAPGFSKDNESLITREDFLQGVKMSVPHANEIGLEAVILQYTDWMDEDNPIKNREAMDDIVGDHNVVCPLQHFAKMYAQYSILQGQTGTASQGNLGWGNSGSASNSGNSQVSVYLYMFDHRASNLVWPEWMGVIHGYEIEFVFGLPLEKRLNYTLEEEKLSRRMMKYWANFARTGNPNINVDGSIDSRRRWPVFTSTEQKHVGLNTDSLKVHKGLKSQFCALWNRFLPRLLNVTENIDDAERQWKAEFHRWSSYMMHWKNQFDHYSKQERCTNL

Biological target: T1, acetylcholinesterase (AChE) from electric eels (type V-S) (Electrophorus electricus, UniProt O42275)
T1 construct: purchased Sigma-Aldrich (St. Louis, MO, USA) type V-S (catalogue number not given)
Test: Acetylcholinesterase (AChE) inhibitory assay, modified Ellman's colorimetric method, 96-well microplate
Assay type: biochemical

`CNC(=O)Oc1ccc2c(c1)[C@]1(C)CCN(C)[C@@H]1N2C` [Physostigmine, reference compound] was tested, and the IC50 was 31.4 ± 0.5 µM.
